pIC50: −log10 of the molar value.
Molecular target: autotaxin (ATX) (Homo sapiens, UniProt Q13822)
Test: Native Autotaxin Choline Release Assay
Details: read-out: MDA-MB-435S Assay IC50; autotaxin in conditioned medium from human melanoma cell line; choline released from LPC

CCn1cc(-n2c(C)c(Sc3ccc(F)c(C(=O)O)c3)c3ccc(Cl)c(F)c32)cn1
pIC50: > 6.52

Reference: patent US9000025B2, “Autotaxin inhibitors and uses thereof” (Amira Pharmaceuticals, Inc., priority 2010, dated 2015)
